From article PMC9001978, “Determining the Effects of Differential Expression of GRKs and β-arrestins on CLR-RAMP Agonist Bias” (Frontiers in Physiology, 2022)

The chains behind the UniProt entries cited, without tags or fusion partners. Residues count along the entry.
UniProt O60895, 43-175: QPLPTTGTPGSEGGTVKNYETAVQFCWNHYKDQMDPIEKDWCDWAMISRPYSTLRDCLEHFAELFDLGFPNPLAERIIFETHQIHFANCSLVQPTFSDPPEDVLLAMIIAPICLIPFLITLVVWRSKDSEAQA
UniProt Q16602, 23-461: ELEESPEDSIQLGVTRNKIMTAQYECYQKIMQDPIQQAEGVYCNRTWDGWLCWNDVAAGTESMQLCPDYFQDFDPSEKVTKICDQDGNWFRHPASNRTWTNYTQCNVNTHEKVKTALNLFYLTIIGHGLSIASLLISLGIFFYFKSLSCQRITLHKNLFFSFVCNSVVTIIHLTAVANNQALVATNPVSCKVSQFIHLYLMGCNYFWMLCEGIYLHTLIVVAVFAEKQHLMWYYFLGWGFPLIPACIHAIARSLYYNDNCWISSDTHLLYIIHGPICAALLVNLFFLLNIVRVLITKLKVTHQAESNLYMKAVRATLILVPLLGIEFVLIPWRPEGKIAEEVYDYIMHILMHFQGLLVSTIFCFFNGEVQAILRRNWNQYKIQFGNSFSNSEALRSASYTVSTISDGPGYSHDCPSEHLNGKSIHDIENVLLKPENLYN

Assays:
[1] = target: T1, CLR-RAMP2 (Homo sapiens, UniProt O60895+Q16602); assay: cAMP accumulation at CLR-RAMP2; settings: HEK293T, 30 min, N.R. = no response or too small (pEC50 and Emax), n = 3
[2] = target: T1, CLR-RAMP2; assay: β-arrestin1 recruitment to CLR-RAMP2 (BRET); settings: HEK293T, N.R. = no response or too small (pEC50 and Emax)
[3] = target: T1, CLR-RAMP2; assay: β-arrestin2 recruitment to CLR-RAMP2 (BRET); settings: HEK293T, N.R. = no response or too small (pEC50 and Emax), n = 3

CSCC[C@H](NC(=O)[C@H](CC(C)C)NC(=O)[C@H](CCC(N)=O)NC(=O)[C@H](Cc1c[nH]c2ccccc12)NC(=O)[C@H](CC(C)C)NC(=O)[C@H](CCCNC(=N)N)NC(=O)[C@H](Cc1c[nH]cn1)NC(=O)[C@H](CO)NC(=O)[C@H](CC(C)C)NC(=O)[C@H](CC(N)=O)NC(=O)[C@H](CCC(N)=O)NC(=O)[C@@H](NC(=O)[C@H](CCC(N)=O)NC(=O)[C@@H]1CSSC[C@H](NC(=O)CNC(=O)[C@@H](NC(=O)[C@H](CCCNC(=N)N)NC(=O)[C@H](CC(C)C)NC(=O)[C@H](CC(C)C)NC(=O)[C@H](CCC(N)=O)NC(=O)[C@H](C)NC(=O)[C@H](CCC(N)=O)NC(=O)[C@@H](N)[C@@H](C)O)C(C)C)C(=O)N[C@@H](C(C)C)C(=O)N[C@@H](CC(C)C)C(=O)NCC(=O)N[C@@H]([C@@H](C)O)C(=O)N1)C(C)C)C(=O)NCC(=O)N1CCC[C@H]1C(=O)N[C@@H](C)C(=O)NCC(=O)N[C@@H](CCCNC(=N)N)C(=O)N[C@@H](CCC(N)=O)C(=O)N[C@@H](CC(=O)O)C(=O)N[C@@H](CO)C(=O)N[C@@H](C)C(=O)N1CCC[C@H]1C(=O)N[C@H](C(=O)N[C@@H](CC(=O)O)C(=O)N1CCC[C@H]1C(=O)N[C@@H](CO)C(=O)N[C@@H](CO)C(=O)N1CCC[C@H]1C(=O)N[C@@H](Cc1c[nH]cn1)C(=O)N[C@@H](CO)C(=O)N[C@@H](Cc1ccc(O)cc1)C(N)=O)C(C)C [AM2, adrenomedullin 2]
N.R.: pEC50, cAMP accumulation ([1]; GRK3 overexpressed) | pEC50, cAMP accumulation ([1]; GRK4 overexpressed) | pEC50, cAMP accumulation ([1]; GRK6 overexpressed) | pEC50, β-arrestin1 recruitment ([2]; GRK5 overexpressed, n = 3) | pEC50, β-arrestin1 recruitment ([2]; GRK6 overexpressed, n = 4) | pEC50, β-arrestin2 recruitment ([3]; GRK5 overexpressed) | pEC50, β-arrestin2 recruitment ([3]; GRK6 overexpressed)
